Molecular target: rat D3 dopamine receptors (Rattus norvegicus, UniProt P19020)
Type: binding

The chains behind the UniProt entries cited, without tags or fusion partners.
UniProt P19020, whole entry: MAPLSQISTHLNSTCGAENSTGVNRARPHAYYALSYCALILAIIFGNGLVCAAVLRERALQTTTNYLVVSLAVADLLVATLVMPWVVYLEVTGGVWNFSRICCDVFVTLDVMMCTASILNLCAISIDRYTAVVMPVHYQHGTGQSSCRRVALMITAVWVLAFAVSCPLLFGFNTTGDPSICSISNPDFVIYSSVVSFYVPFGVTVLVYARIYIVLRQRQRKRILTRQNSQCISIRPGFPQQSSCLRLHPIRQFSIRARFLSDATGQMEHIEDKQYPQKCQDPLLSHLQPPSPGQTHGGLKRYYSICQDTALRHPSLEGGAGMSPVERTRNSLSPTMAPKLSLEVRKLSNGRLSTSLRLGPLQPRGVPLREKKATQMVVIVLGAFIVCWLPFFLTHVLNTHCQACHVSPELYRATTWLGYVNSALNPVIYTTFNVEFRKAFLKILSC

| Compound | selectivity D3/D2 | selectivity for rat D3 receptor over rat D2 receptor | selectivity for rat D3 receptor over rat D1-like receptors [fold] |
| --- | --- | --- | --- |
| CCCN(CC[C@]1(O)C[C@@H](NC(=O)c2ccc3ccccc3c2)C1)C1CC1c1ccc(Cl)cc1 (relative stereo) [(±)-11, N-(cis-3-(2-((((±)-trans)-2-(4-Chlorophenyl)cyclopropyl)(propyl)-amino)ethyl)-3-hydroxycyclobutyl)-2-naphthamide] | >21000 | > 10000 | – |
| CCCN(CC[C@]1(O)C[C@@H](NC(=O)c2ccc3ccccc3c2)C1)[C@@H]1C[C@H]1c1ccc(Cl)cc1 [(1R,2S)-11, N-(cis-3-(2-(((1R,2S)-2-(4-Chlorophenyl)cyclopropyl)(propyl)-amino)ethyl)-3-hydroxycyclobutyl)-2-naphthamide] | >100000 | – | > 9000 |
| CCCN(CC[C@]1(O)C[C@@H](NC(=O)c2ccc3ccccc3c2)C1)[C@H]1C[C@@H]1c1ccc(Cl)cc1 [(1S,2R)-11, N-(cis-3-(2-(((1S,2R)-2-(4-Chlorophenyl)cyclopropyl)(propyl)-amino)ethyl)-3-hydroxycyclobutyl)-2-naphthamide] | >218 | – | – |

Reference: paper PMC4216217 (Journal of Medicinal Chemistry, 2014)
